From US8093297B2 (Mutual Pharmaceutical Company, Inc., priority 2009, dated 2012)

Assay: Pharmacokinetic study in healthy adults of single vs. multiple oral doses of colchicine tablets (Example 1)

SMILES: COc1cc2c(c(OC)c1OC)-c1ccc(OC)c(=O)cc1[C@@H](NC(C)=O)CC2 [Colchicine, (−)-N-[(7S,12aS)-1,2,3,10-tetramethoxy-9-oxo-5,6,7,9-tetrahydrobenzo[a]heptalen-7-yl]-acetamide]
- mean Cmin concentration (Day 25): 0.907 ng/mL
- Cmin, MEAN (multiple (b.i.d. x 10 days) oral doses colchicine 0.6 mg, after last dose Day 25, healthy adults N=13): 0.90651 ng/mL
